Reference: US12012387B2, “Triazine compound and use thereof” (priority 2018, dated 2024)

Tests used:
Type in all cases: cell-based
[1] = tested on: Escherichia coli (KCTC1682); conditions: Gram-negative bacteria; 37° C., 12 hours
Protocol: (§1) To confirm the antibacterial activity, a minimal inhibitory concentration (MIC) value, which is a minimum concentration at which fungus bodies are not divided, was measured. Specifically, the strains disclosed in the following table 1 were purchased, incubated in each medium up to a mid-log phase, diluted to a fungus body concentration of 2×10^5 cells/100 μl, and inoculated into a micro titrate plate (Nunc, USA). […] A control group was treated with melittine by the same method as above, so as to determine an MIC value for each strain.

[2] = tested on: Pseudomonas aeruginosa (KCTC 1637); conditions: Gram-negative bacteria; 37° C., 12 hours
Protocol: as §1

[3] = tested on: Staphylococcus aureus (KCTC 1621); conditions: Gram-positive bacteria; 37° C., 12 hours
Protocol: as §1

[4] = tested on: Staphylococcus epidermidis (KCTC 1917); conditions: Gram-positive bacteria; 37° C., 12 hours
Protocol: as §1

human red blood cells = assay: Hemolytic action (erythrocyte hemolytic activity)
Protocol: To confirm the hemolytic action, the erythrocyte hemolytic activity (%) measured by the following method was calculated. Specifically, human red blood cells were diluted in physiological saline solution (PBS, pH 7.4) to a concentration of 8%, and each of the triazine compounds of the following example was treated at a concentration of 0 to 300 μM/well, so as to be reacted at 37° C. for one hour. Then, an amount of hemoglobin contained in the supernatant obtained by centrifugation at 1,000×g was identified by measuring the absorbance at a wavelength of 414 nm. As a reference for the degree of cell destruction, a control group was treated with 1% Triton X-100 (Sigma, USA) and reacted at 37° C. for one hour, after which the absorbance of the obtained supernatant was measured. […] Erythrocyte hemolytic activity (%)=(Absorbance A−Absorbance B)/(Absorbance C−Absorbance B)×100 [Equation 2]
[In Equation 2, Absorbance A represents the absorbance of the reaction solution treated with each triazine compound measured at a wavelength of 414 nm; Absorbance B represents the absorbance of the reaction solution treated with PBS measured at a wavelength of 414 nm; and Absorbance C represents the absorbance of the reaction solution treated with 1% Triton X-100 measured at a wavelength of 414 nm.]

In the case of `CC[C@H](C)[C@H](NC(=O)CN)C(=O)NCC(=O)N[C@@H](C)C(=O)N[C@H](C(=O)N[C@@H](CC(C)C)C(=O)N[C@@H](CCCCN)C(=O)N[C@H](C(=O)N[C@@H](CC(C)C)C(=O)N[C@H](C(=O)N[C@H](C(=O)NCC(=O)N[C@@H](CC(C)C)C(=O)N1CCC[C@H]1C(=O)N[C@@H](C)C(=O)N[C@@H](CC(C)C)C(=O)N[C@H](C(=O)N[C@@H](CO)C(=O)N[C@@H](Cc1c[nH]c2ccccc12)C(=O)N[C@H](C(=O)N[C@@H](CCCCN)C(=O)N[C@@H](CCCNC(=N)N)C(=O)N[C@@H](CCCCN)C(=O)N[C@@H](CCCNC(=N)N)C(=O)N[C@@H](CCC(N)=O)C(=O)N[C@@H](CCC(N)=O)C(N)=O)[C@@H](C)CC)[C@@H](C)CC)[C@@H](C)O)[C@@H](C)O)C(C)C)C(C)C` [Melittin], the “MIC Escherichia coli (KCTC1682)” value [1] is reported as 2.5 µM (≈ 7.12 µg/mL), the “MIC Pseudomonas aeruginosa (KCTC 1637)” value [2] is reported as 5 µM (≈ 14.2 µg/mL) and the “MIC Staphylococcus aureus (KCTC 1621)” value [3] is reported as 2.5 µM (≈ 7.12 µg/mL). The “MIC Staphylococcus epidermidis (KCTC 1917)” value [4] was 5 µM (≈ 14.2 µg/mL), the hemolysis (human red blood cells; concentration of 80 μM/well) was 100% and the MHC (human red blood cells; human red blood cells, 37° C., one hour) was 4 µM.

Converted amounts (≈) assume the structure as drawn.
